Test results reported in patent US20260308222A1, “STABILIZED ANALOGUES OF CALCITONIN” (YISSUM RESEARCH DEVELOPMENT COMPANY OF THE HEBREW …, priority 2024, published 2026).
Values joined by “and” are separate entries in the source; they are usually repeats but may differ in a detail not shown here. Identical values can stand only once.

Target: T1, calcitonin receptor (CTR) (Homo sapiens, UniProt P30988)
T1 sequence (P30988 25-474): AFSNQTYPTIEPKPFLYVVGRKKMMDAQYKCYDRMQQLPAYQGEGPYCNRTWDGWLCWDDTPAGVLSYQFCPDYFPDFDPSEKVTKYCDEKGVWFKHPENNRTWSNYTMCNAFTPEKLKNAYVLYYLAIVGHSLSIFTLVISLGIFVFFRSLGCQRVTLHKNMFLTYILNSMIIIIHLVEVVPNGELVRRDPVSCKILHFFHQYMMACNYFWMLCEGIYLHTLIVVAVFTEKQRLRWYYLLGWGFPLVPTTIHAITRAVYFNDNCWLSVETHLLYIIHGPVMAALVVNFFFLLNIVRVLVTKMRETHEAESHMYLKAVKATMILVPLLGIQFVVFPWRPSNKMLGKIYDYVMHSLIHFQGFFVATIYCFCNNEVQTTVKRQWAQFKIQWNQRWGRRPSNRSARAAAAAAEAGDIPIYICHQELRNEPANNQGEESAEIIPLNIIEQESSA
Assay: cAMP accumulation assay, U2OS Red cAMPNomad-CALCR cell line
Assay type: cell-based
Design: expressed in transfected cells; host or cells: U2OS Red cAMPNomad-CALCR
Details: U2OS Red cAMPNomad-CALCR cells, overnight incubation

Q: How did the EC50 turn out when `CC[C@H](C)[C@H](NC(=O)[C@H](C)NC(=O)[C@@H](NC(=O)[C@H](CCC(N)=O)NC(=O)[C@@H]1CCCN1C(=O)[C@H](Cc1ccccc1)NC(=O)[C@@H](NC(=O)[C@H](Cc1c[nH]cn1)NC(=O)[C@H](Cc1ccccc1)NC(=O)[C@H](CCCCN)NC(=O)[C@H](CC(N)=O)NC(=O)[C@H](Cc1ccccc1)NC(=O)[C@H](CC(=O)O)NC(=O)[C@H](CCC(N)=O)NC(=O)[C@@H](NC(=O)[C@H](Cc1ccc(O)cc1)NC(=O)[C@@H](NC(=O)CNC(=O)[C@H](CC(C)C)NC(=O)[C@H](CCSC)NC(=O)[C@@H]1CSSC[C@H](N)C(=O)NCC(=O)N[C@@H](CC(N)=O)C(=O)N[C@@H](CC(C)C)C(=O)N[C@@H](CO)C(=O)N[C@@H]([C@@H](C)O)C(=O)N1)[C@@H](C)O)[C@@H](C)O)[C@@H](C)O)[C@@H](C)O)C(=O)NCC(=O)N[C@H](C(=O)NCC(=O)N[C@@H](C)C(=O)N1CCC[C@H]1C(N)=O)C(C)C` [hCT, reference compound] was run?
A: 7.78 nM and 7.8 nM
